Patent US10351573B2, “Benzoic acid, benzoic acid derivatives and heteroaryl carboxylic acid conjugates of hydrocodone, prodrugs, methods of making and uses thereof” (KemPharm, Inc., priority 2009, dated 2019)

Assay: Water solubility / feasibility of intranasal or intravenous dosing

salicylate hydrocodone [Compound 2-OH-Bz-HC]
water solubility (in words): hydrophobic
